Measurements published in PMC11969009 (Nature Communications, 2025).

Chains of the proteins cited; added tags and fusions are not shown.
UniProt P33261, whole entry: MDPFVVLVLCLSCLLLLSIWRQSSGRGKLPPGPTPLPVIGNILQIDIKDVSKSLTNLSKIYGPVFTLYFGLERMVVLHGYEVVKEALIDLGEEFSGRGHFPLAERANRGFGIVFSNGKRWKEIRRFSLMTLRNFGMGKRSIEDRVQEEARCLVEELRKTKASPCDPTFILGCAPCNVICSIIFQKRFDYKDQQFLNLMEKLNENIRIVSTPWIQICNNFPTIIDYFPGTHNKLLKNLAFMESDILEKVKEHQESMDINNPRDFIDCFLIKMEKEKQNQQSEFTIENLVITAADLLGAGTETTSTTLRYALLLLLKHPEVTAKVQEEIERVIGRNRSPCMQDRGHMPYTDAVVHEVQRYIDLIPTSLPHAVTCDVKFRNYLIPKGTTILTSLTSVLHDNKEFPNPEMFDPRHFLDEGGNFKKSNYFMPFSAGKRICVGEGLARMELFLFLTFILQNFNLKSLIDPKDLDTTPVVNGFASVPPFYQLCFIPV

Molecular target: CYP2C19 (Homo sapiens, UniProt P33261)
Conditions: microsomes

Substance “(S)-(+)-N-3-benzylnirvanol [reference compound]” has an IC50 of 450 nM.
